Values quoted from earlier work in patent US20080113011A1, “Compositions and methods for enhanced mucosal delivery of interferon beta” (Nastech Pharmaceutical Company Inc., priority 2002, published 2008).

What was measured:
[1] = rabbits
[2] = after an intramuscular or subcutaneous dose

For “IFN-β: interferon-β, glycoprotein of 20 kDa, 166 amino acids”, the “time biological markers remain elevated” value [2] is given as 4 days, the “time of peak of biological markers (2',5'-OAS, neopterin, β2-microglobulin)” value [2] is given as ~48 hours and the elimination half-life (in vivo) is given as “around 10 hours”. For the same substance, the “absorption after intranasal administration, in words” value ([1]; solution or powder formulations without surfactants) was “not absorbed” and the “Total absorption following nasal administration, of that following intravenous administration” value ([1]; with sodium glycocholate) was 2.2%.
